The values below are quoted from earlier work in patent US12291505B2, “Methods for the synthesis of deuterated dextromethorphan” (AVANIR PHARMACEUTICALS, INC., priority 2016, dated 2025).

For this data set the following is noted: co-administered with dextromethorphan.

Take `CNCCC(Oc1ccc(C(F)(F)F)cc1)c1ccccc1` (stereo not shown) [fluoxetine]: the “effect on dextromethorphan in the blood” value is on record as “effective in increasing dextromethorphan concentrations in the blood of some people”.
